Test results from PubChem BioAssay (NCATS).
The list shows a part of the results, in another mix than the full data. Inconclusive results are not listed. The source made the active and inactive calls. Unless noted, the call rests on the fitted dose curve; in most records, active means well fitted curve in the direction sought with a large enough effect; inconclusive means small, poorly fitted or top-dose-only effect, or another doubt; inactive means no such curve, though single readings can be large; an effect the other way counts as inactive or inconclusive.

Amino acid sequences for entries named in this document (tags omitted). A change or cut given only in a name is not applied to a line headed by its entry.
UniProt Q99828: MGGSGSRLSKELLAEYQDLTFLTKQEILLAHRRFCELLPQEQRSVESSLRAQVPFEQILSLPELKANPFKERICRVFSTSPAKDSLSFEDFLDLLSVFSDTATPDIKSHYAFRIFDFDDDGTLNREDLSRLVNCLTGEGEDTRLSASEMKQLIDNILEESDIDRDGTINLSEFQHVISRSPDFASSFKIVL
UniProt P10635, whole entry, looked up: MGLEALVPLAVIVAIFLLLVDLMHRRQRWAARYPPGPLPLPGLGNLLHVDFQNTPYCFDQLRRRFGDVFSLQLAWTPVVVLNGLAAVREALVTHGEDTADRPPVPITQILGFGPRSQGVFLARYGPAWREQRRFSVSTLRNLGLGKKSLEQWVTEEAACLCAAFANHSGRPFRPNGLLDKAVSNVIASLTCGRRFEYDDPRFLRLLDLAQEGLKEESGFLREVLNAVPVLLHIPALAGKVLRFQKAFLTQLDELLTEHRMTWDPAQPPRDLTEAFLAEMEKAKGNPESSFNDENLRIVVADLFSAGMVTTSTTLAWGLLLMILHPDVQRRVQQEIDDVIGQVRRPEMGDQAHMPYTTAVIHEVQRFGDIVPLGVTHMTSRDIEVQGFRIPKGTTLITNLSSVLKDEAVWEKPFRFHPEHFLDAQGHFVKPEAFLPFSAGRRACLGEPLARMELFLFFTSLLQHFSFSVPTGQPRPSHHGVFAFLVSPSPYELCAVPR
UniProt P11712, whole entry, looked up: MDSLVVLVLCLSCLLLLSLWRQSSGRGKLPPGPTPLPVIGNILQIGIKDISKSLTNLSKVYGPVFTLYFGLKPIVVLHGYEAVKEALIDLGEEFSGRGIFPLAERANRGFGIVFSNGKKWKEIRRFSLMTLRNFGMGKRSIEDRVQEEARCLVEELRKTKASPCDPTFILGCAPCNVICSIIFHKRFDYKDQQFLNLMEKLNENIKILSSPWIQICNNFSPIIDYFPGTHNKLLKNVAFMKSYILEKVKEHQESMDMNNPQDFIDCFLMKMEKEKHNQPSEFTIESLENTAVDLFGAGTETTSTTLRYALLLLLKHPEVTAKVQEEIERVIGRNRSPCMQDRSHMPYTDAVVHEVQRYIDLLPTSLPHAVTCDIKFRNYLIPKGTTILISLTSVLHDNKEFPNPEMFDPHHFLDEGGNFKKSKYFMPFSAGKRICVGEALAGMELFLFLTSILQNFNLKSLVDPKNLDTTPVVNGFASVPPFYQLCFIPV

Tests used:
[1] = High-throughput drug toxicity screening in the BPDCN cell line Gen2.2 (AID 1224824; call rule not given here;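 further: cells exposed to compounds for 48 h before reading; 100% = DMSO and 0% = bortezomib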); conditions: Gen2.2 BPDCN cells; at 45.8 µM (top of the series)
[2] = High-throughput drug toxicity screening in the BPDCN cell line Cal-1 (AID 1224825; call rule not given here;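 further: cells exposed to compounds for 48 h; 100% = DMSO and 0% = bortezomib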); conditions: Cal-1 BPDCN cell viability, qHTS; at 45.8 µM (top of the series)
[3] = qHTS Screen of the MIPE 4.0 Collection Against Ewings Sarcoma (RDES) (AID 1259252); conditions: RD-ES Ewing sarcoma viability, CellTiter-Glo, 48 h; at 45.8 µM (top of the series);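 further: 100% = DMSO-treated cells and 0% = medium-only wells without cells; nearly all actives have a fitted effect of over 35% in size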
[4] = P-glycoprotein substrates identified in KB-8-5-11 adenocarcinoma cell line, qHTS therapeutic library screen (AID 1346987); conditions: KB-8-5-11 (P-gp overexpressing) viability, CellTiter-Glo, 72 h; at 44.5 µM (top of the series) unless noted; further: on the % scale 0 is the no-effect control and ±100 the full control effect; nearly all actives have a fitted effect of over 65% in size
[5] = qHTS of pediatric cancer cell lines to identify multiple opportunities for drug repurposing: Primary screen for TC32 cells (AID 1347089); conditions: TC32 Ewing sarcoma viability, CellTiter-Glo luminescence, 48 h; at 45.8 µM (top of the series) unless noted; further: on the % scale 0 is the no-effect control and ±100 the full control effect; nearly all actives have a fitted effect of over 60% in size
[6] = qHTS of pediatric cancer cell lines to identify multiple opportunities for drug repurposing: Primary screen for DAOY cells (AID 1347090);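 further: plate controls were DMSO for no effect and bortezomib for full effect; nearly all actives have a fitted effect of over 55% in size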
[7] = qHTS of pediatric cancer cell lines to identify multiple opportunities for drug repurposing: Primary screen for SJ-GBM2 cells (AID 1347091); conditions: SJ-GBM2 viability, CellTiter-Glo luminescence, 48 h; at 46 µM (top of the series) unless noted;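 further: plate controls were DMSO neutral control for no effect and bortezomib for full effect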
[8] = qHTS of pediatric cancer cell lines to identify multiple opportunities for drug repurposing: Primary screen for A673 cells (AID 1347092); conditions: A673 Ewing sarcoma viability, CellTiter-Glo ATP luminescence, 48 h; at 46 µM (top of the series) unless noted; further: on the % scale 0 is the no-effect control and ±100 the full control effect; nearly all actives have a fitted effect of over 45% in size
[9] = qHTS of pediatric cancer cell lines to identify multiple opportunities for drug repurposing: Primary screen for SK-N-MC cells (AID 1347093); conditions: SK-N-MC viability, CellTiter-Glo luminescence, 48 h; at 46 µM (top of the series) unless noted;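 further: plate controls were DMSO neutral control for no effect and bortezomib for full effect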
[10] = qHTS of pediatric cancer cell lines to identify multiple opportunities for drug repurposing: Primary screen for BT-37 cells (AID 1347094); conditions: BT-37 viability, CellTiter-Glo luminescence, 48 h; at 57.3 µM (top of the series) unless noted;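 further: plate controls were DMSO for no effect and bortezomib for full effect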
[11] = qHTS of pediatric cancer cell lines to identify multiple opportunities for drug repurposing: Primary screen for NB-EBc1 cells (AID 1347095); conditions: NB-EBc1 neuroblastoma viability, CellTiter-Glo luminescence, 48 h; at 46 µM (top of the series) unless noted;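 further: plate controls were DMSO neutral control for no effect and bortezomib for full effect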
[12] = qHTS of pediatric cancer cell lines to identify multiple opportunities for drug repurposing: Primary screen for U-2 OS cells (AID 1347096); conditions: U-2 OS viability, CellTiter-Glo luminescence, 48 h; at 46 µM (top of the series) unless noted;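 further: plate controls were DMSO wells for no effect and bortezomib positive control wells for full effect; nearly all actives have a fitted effect of over 50% in size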
[13] = qHTS of pediatric cancer cell lines to identify multiple opportunities for drug repurposing: Primary screen for Saos-2 cells (AID 1347097); conditions: Saos-2 viability, CellTiter-Glo ATP luminescence, 48 h; at 46 µM (top of the series) unless noted; further: on the % scale 0 is the no-effect control and ±100 the full control effect; nearly all actives have a fitted effect of over 40% in size
[14] = qHTS of pediatric cancer cell lines to identify multiple opportunities for drug repurposing: Primary screen for SK-N-SH cells (AID 1347098); conditions: SK-N-SH viability, CellTiter-Glo luminescence, 48 h; at 57 µM (top of the series) unless noted;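 further: DMSO served as neutral control and bortezomib at 2.3 µM as positive control; on the % scale 0 is the no-effect control and ±100 the full control effect; nearly all actives have a fitted effect of over 65% in size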
[15] = qHTS of pediatric cancer cell lines to identify multiple opportunities for drug repurposing: Primary screen for NB1643 cells (AID 1347099); conditions: NB1643 neuroblastoma viability, CellTiter-Glo luminescence, 48 h; at 46 µM (top of the series) unless noted;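 further: plate controls were DMSO neutral control for no effect and bortezomib positive control for full effect; nearly all actives have a fitted effect of over 50% in size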
[16] = qHTS of pediatric cancer cell lines to identify multiple opportunities for drug repurposing: Primary screen for Rh18 cells (AID 1347102); conditions: Rh18 rhabdomyosarcoma viability, CellTiter-Glo luminescence, 48 h; at 46 µM (top of the series) unless noted; further: on the % scale 0 is the no-effect control and ±100 the full control effect; nearly all actives have a fitted effect of over 65% in size
[17] = qHTS of pediatric cancer cell lines to identify multiple opportunities for drug repurposing: Primary screen for OHS-50 cells (AID 1347103); further: potency means the concentration at half of the fitted maximal effect; nearly all actives have a fitted effect of over 40% in size
[18] = qHTS of pediatric cancer cell lines to identify multiple opportunities for drug repurposing: Primary screen for RD cells (AID 1347104); conditions: RD rhabdomyosarcoma viability, CellTiter-Glo luminescence, 48 h; at 46 µM (top of the series) unless noted;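 further: plate controls were DMSO for no effect and bortezomib for full effect; nearly all actives have a fitted effect of over 55% in size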
[19] = qHTS of pediatric cancer cell lines to identify multiple opportunities for drug repurposing: Primary screen for MG 63 (6-TG R) cells (AID 1347105); conditions: MG 63 (6-TG R) viability, CellTiter-Glo, 48 h; at 46 µM (top of the series) unless noted; further: on the % scale 0 is the no-effect control and ±100 the full control effect; nearly all actives have a fitted effect of over 50% in size
[20] = qHTS of pediatric cancer cell lines to identify multiple opportunities for drug repurposing: Primary screen for control Hh wild type fibroblast cells (AID 1347106); conditions: Hh wild-type fibroblast viability, CellTiter-Glo luminescence, 48 h; at 46 µM (top of the series) unless noted;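 further: on the % scale 0 is the no-effect control and ±100 the full control effect; a drop in luminescence marks cytotoxicity and a rise apparent proliferation; nearly all actives have a fitted effect of over 55% in size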
[21] = qHTS of pediatric cancer cell lines to identify multiple opportunities for drug repurposing: Primary screen for Rh30 cells (AID 1347107); conditions: Rh30 rhabdomyosarcoma viability, CellTiter-Glo luminescence, 48 h; at 46 µM (top of the series) unless noted; further: on the % scale 0 is the no-effect control and ±100 the full control effect; nearly all actives have a fitted effect of over 75% in size
[22] = qHTS of pediatric cancer cell lines to identify multiple opportunities for drug repurposing: Primary screen for Rh41 cells (AID 1347108); conditions: Rh41 rhabdomyosarcoma viability, CellTiter-Glo luminescence, 48 h; at 46 µM (top of the series) unless noted;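 further: luminescence drop marks cytotoxic hits; nearly all actives have a fitted effect of over 70% in size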
[23] = target: Calcium and integrin-binding protein 1 (Homo sapiens) (UniProt Q99828); assay: Primary qHTS for Identification of Calcium Integrin Binding Protein 1 (CIB1) Competitor (AID 1508620); conditions: CIB1-GST / FITC-alphaIIb peptide fluorescence polarization; at 114 µM (top of the series) unless noted;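 further: GST tagged CIB1 binding a fluorescein labelled alphaIIb integrin peptide tracer; top concentration of the series differs between compounds; on the % scale 0 is the no-effect control and ±100 the full control effect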
[24] = Primary qHTS for small molecule stabilizers of the endoplasmic reticulum resident proteome: Secreted ER Calcium Modulated Protein (SERCaMP) assay (AID 1508630); conditions: SH-SY5Y GLuc-SERCaMP secretion, thapsigargin, luminescence; at 38.4 µM (top of the series); further: on the % scale 0 is the no-effect control and ±100 the full control effect
Summary of the method: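 GLuc-SERCaMP-expressing SH-SY5Y cells, pretreated 16 h with compound, are challenged with thapsigargin to empty ER calcium stores; after 4 h, coelenterazine is added directly to the medium and luminescence is imaged.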

[25] = target: Cytochrome P450 2D6 (Homo sapiens) (UniProt P10635); assay: Cytochrome P450 family 2 subfamily D member 6 (CYP2D6) small molecule antagonists: luciferase biochemical (cell-free) qHTS assay (AID 1645840; active means well fitted curve in the direction sought with a large enough effect in the repeat runs; an effect the other way counts as inactive or inconclusive; further: potency means the concentration at half of the fitted maximal effect; nearly all actives have a fitted effect of over 55% in size)
Summary of the method: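 P450-Glo luminescent screen: recombinant CYP2D6 enzyme–proluciferin substrate mix preincubated with compound 10 min at room temperature, then NADPH regeneration added for 1 h at room temperature. Detection reagent added for 20 min; luciferin light read as relative luminescence units.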

[26] = target: Cytochrome P450 2C9 (Homo sapiens) (UniProt P11712); assay: Cytochrome P450 family 2 subfamily C member 9 (CYP2C9) small molecule antagonists: luciferase qHTS assay (AID 1645842; active means well fitted curve in the direction sought with a large enough effect in the repeat runs; an effect the other way counts as inactive or inconclusive); conditions: P450-Glo CYP2C9 enzyme assay, luciferin luminescence; at 57.4 µM (top of the series) unless noted
Summary of the method: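 Luminescence, after 20 min with luciferin detection reagent, reflected CYP2C9 turnover during a 1 h NADPH-driven reaction at 37C. Enzyme-substrate mix contained 0.4% bovine serum albumin and was preincubated with compound 10 min at room temperature.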

[27] = Quantitative High-Throughput drug screen in 47 multiple myeloma cell lines against the NCATS MIPE library collection: FR4_PLB cell viability assay (AID 1918924;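 further: 100% = DMSO-treated cells and 0% = wells with media only; nearly all actives have a fitted effect of over 35% in size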); conditions: FR4_PLB myeloma cells viability, CellTiter-Glo ATP, 48 h; at 45.8 µM (top of the series)
[28] = Quantitative High-Throughput drug screen in 47 multiple myeloma cell lines against the NCATS MIPE library collection: EJM_DSMZ cell viability assay (AID 1918926;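 further: 100% = DMSO-only wells and 0% = media-only wells without cells; nearly all actives have a fitted effect of over 30% in size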); conditions: EJM myeloma cell viability, CellTiter-Glo ATP, 48 h; at 45.8 µM (top of the series)

CCn1c(=O)n([C@@H]2CCN(CC3CCCCCCC3)C[C@@H]2CO)c2ccccc21
108%: viability (% of control) [2]
196%: cell viability, % of control (lower = more cytotoxic) [1]
inactive: viability (percent of control) [3] 91.7% | activity change, negative = cytotoxicity [4] -19% | activity change, negative = cytotoxic [5] 2.25% | Potency [6] | activity change, negative = cytotoxic [7] 51.7% | activity change, negative = cytotoxic [8] -19.9% | activity change, negative = cytotoxic [9] 53% | activity change, negative = cytotoxic [10] -21.3% | activity change, negative = cytotoxic [11] 16.8% | activity change, negative = cytotoxic [12] -11.4% | activity change, negative = cytotoxic [13] 17.1% | activity change, negative = cytotoxic [14] 15% | activity change, negative = cytotoxic [15] 11.6% | activity change, negative = cytotoxic [16] -16.5% | activity change, negative = cytotoxic [18] -25.4% | activity change, negative = cytotoxic [19] 56.3% | activity change, negative = cytotoxic [20] 3.99% | activity change, negative = cytotoxic [21] 13.9% | activity change, negative = cytotoxic [22] -1.15% | activity change, negative = inhibition [23] 1.26% [at 57.7 µM] | activity change, negative = inhibition [24] 42.5% | activity change, negative = inhibition [26] -7.05% | viability (% of DMSO control) [27] 90.5% | viability, % of control [28] 85.2%
active: Potency [17] 24.3 µM | Potency [25] 3.38 µM
